# Target: Kv11.1 (hERG) ion channel (Homo sapiens (Human), UniProt Q12809)
# Protein sequences, listed by entry. Tags and fused reporters are not part of them. Lines headed by an entry give the natural chain unless they say otherwise; changes in a name come on top.
# UniProt Q12809: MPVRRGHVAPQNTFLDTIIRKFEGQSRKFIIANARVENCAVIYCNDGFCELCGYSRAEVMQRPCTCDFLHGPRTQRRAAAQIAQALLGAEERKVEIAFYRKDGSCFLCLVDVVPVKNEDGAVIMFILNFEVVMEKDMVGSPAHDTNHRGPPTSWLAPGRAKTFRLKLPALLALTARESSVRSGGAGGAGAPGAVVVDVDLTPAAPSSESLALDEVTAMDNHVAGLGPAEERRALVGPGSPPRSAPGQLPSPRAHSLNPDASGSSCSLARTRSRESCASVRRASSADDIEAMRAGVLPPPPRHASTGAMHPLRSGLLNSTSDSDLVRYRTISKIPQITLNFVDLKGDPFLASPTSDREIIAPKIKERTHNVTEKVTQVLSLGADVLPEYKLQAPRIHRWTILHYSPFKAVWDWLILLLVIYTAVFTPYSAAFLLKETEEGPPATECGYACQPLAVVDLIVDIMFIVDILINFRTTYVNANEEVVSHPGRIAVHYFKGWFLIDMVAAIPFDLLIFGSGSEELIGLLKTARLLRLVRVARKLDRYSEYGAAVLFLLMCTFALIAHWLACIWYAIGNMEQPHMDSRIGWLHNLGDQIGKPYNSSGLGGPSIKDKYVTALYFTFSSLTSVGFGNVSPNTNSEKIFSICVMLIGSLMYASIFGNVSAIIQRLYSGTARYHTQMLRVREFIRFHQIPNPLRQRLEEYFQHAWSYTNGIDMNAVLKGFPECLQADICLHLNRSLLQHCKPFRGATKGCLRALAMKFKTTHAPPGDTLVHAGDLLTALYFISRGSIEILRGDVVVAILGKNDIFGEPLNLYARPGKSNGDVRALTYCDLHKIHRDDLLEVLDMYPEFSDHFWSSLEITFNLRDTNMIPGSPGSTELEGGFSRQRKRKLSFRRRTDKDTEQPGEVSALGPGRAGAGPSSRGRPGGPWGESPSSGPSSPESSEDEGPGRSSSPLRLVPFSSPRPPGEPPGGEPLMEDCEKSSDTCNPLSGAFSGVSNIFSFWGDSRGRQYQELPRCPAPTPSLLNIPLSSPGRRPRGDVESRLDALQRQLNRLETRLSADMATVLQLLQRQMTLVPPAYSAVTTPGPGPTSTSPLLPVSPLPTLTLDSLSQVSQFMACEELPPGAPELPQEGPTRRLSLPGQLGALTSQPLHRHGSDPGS
# Assay type: cell-based
# Details: ratio of hERG Ki (patch clamp) to pERK IC50 in KYSE520
# Method: Inhibition of the ion channel hErg (or Kv11.1) current causes QT interval prolongation resulting in potentially fatal ventricular tachyarrhythmia called Torsade de Pointes.
# hERG ion channel activity was assessed using a patch clamp technique in stable Kv11.1 (hERG) transfected human embryonic kidney cell line (HEK293). Whole cell recordings were carried out with an automated patch clamp device Patchliner™ from Nanion Technologies, Munich following manufacturer recommendation. Different concentrations of the test compound or reference, quinidine, were applied to whole cells suspension and current was measured using a pulse pattern with fixed amplitudes.
substance,measurement,value
"2-((S)-3-amino-3H-spiro[benzofuran-2,4′-piperidin]-1′-yl)-5-(2,3-dichlorophenyl)-6-methylpyrimidine-4-carboxamide [Compound 122]",Split between hErg and cell activity Ki(patch Clamp)/IC50 (KYSE),>50
